## Apparent affinities of Ab-95 variants for a coronavirus HR2 peptide

Values reported by Engelhart et al. 2022, doi:10.1038/s41597-022-01779-4 (FLAb copy).

All variants were tested on one target, the spike HR2 peptide PDVDLGDISGINAS (SARS-CoV-2).

Each scFv is VH, three GGGGS repeats, VL, as in the parent Ab-95, and differs from it in the CDRs of the light chain only.
VH: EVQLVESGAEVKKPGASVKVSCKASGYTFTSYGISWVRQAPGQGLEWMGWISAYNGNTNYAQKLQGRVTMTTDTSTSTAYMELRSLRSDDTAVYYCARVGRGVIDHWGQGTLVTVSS
VL: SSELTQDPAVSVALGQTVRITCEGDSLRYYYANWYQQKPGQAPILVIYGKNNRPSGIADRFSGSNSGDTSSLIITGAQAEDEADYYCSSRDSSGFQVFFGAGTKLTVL

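The library (AAYL52) carries one to three amino acid substitutions per variant, with no insertions or deletions. The scFvs were displayed on barcoded MATa yeast, the peptide on MATalpha yeast. Mating (16 h, 30 °C) was followed by selection of diploids and sequencing of their barcodes. A regression on co-assayed BCL2-family reference pairs converts the normalised counts of each replicate to an apparent Kd. There are three technical replicates.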

Positions count from residue 1 of the parent VL; S26I puts I in place of S. Scale: log10 of Kd in nM, estimated from mating counts; low values are strong binders. Averages over replicates are reported, and they cover detected replicates only. Where no diploid with the target was found in any replicate, the entry reads "no signal": below detection, most likely a poor binder, though not proof of it. Nonspecific signal, from three strains lacking the peptide, appeared in 28% of pairings of library AAYL52, centred on 3.91 (5% of these signals below 2.90); values are not corrected for it. The control count says in how many pairings with the empty strains this scFv gave a signal.

changes	mean log10 Kd (nM)	replicates with signal	signal with controls
S26I/L27N	2.75	3 of 3	2 of 9
R28C/G49I/Q96D	4.43	2 of 3	4 of 9
S26A/N51C/V97N	4.55	1 of 3	1 of 9
K50Q/N51A/R53F	5.29	2 of 3	2 of 9
S55W/S93N/Q96E	3.06	2 of 3	0 of 9
S26R/R28L/A32M	3.95	2 of 3	4 of 9
D25W/S26W/A32Y	3.86	1 of 3	4 of 9
G24F/D25R/G94V	4.14	2 of 3	2 of 9
Y31A/N51T/F98E	1.70	3 of 3	3 of 9
S26N/R90I/S93C	3.51	1 of 3	2 of 9
N33Y/D91S/G94N	no signal	0 of 3	3 of 9
Y31T/P54L/S55A	3.28	3 of 3	2 of 9
D25S/G49E/V97D	no signal	0 of 3	4 of 9
N52Y/R53M/V97W	3.76	2 of 3	4 of 9
K50E/S93W/G94N	1.88	3 of 3	0 of 9
D25C/S93I/F98D	4.89	2 of 3	5 of 9
L27F/Y31Q	1.85	3 of 3	2 of 9
Y30D/G49D/S89Q	3.45	2 of 3	1 of 9
Y31M/A32C/N52R	3.08	3 of 3	4 of 9
S93G/G94R/V97T	2.18	3 of 3	4 of 9
N51P/S55Q	3.84	1 of 3	4 of 9
R28C/S88A/S92T	3.02	3 of 3	2 of 9
D91A/F98T	3.58	3 of 3	3 of 9
D25P/G94L	2.15	3 of 3	3 of 9
E23R/Y29L/Y31F	2.89	3 of 3	7 of 9
Y29D/R90I/F98H	no signal	0 of 3	1 of 9
D25S/S89K/D91F	2.25	3 of 3	2 of 9
N51Q/N52V/S55M	2.79	3 of 3	2 of 9
D25H/S55M/S92I	2.74	3 of 3	3 of 9
S26F/N33I/N51T	4.50	1 of 3	2 of 9
S26F/S88P/F95I	4.75	1 of 3	1 of 9
N52D/P54D/S88E	3.05	2 of 3	1 of 9
R28K/D91A/G94L	4.70	2 of 3	0 of 9
Y30N/F95V	0.72	3 of 3	2 of 9
N52S/Q96P/V97R	2.51	3 of 3	4 of 9
G24A/D91H/G94N	3.78	2 of 3	5 of 9
S88R/D91Q/G94I	2.51	3 of 3	1 of 9
Y29E/S55I/S93L	4.22	1 of 3	2 of 9
E23S/G24K/S88V	3.73	3 of 3	2 of 9
Y31P/G49T/R90A	2.24	1 of 3	2 of 9
N52M/G94H/F95T	no signal	0 of 3	1 of 9
G24W/S89G/R90S	4.07	3 of 3	3 of 9
S88M/S93F/F95A	2.55	3 of 3	5 of 9
Y30T/Y31D/G94R	1.98	3 of 3	5 of 9
S26Y/N51E/S89G	2.30	3 of 3	4 of 9
A32V/R90T	4.52	2 of 3	3 of 9
G24P/Y30C/G94K	no signal	0 of 3	2 of 9
E23A/Y30K/S55M	1.27	3 of 3	4 of 9
N51V/S55V/V97I	3.55	2 of 3	6 of 9
G24E/N51T/F98L	3.69	1 of 3	1 of 9
N33T/S93W/F95T	4.20	1 of 3	1 of 9
E23Y/N51D/P54M	2.57	3 of 3	3 of 9
Y31H/S88G	1.65	3 of 3	1 of 9
G24D/N51K/S88D	3.66	1 of 3	3 of 9
R53A/S92I/V97M	4.14	2 of 3	2 of 9
Y30W/R53T/S92R	2.70	3 of 3	3 of 9
G24Y/F95T/V97S	3.05	2 of 3	5 of 9
G24N/N33E/F98R	no signal	0 of 3	1 of 9
Y30G/G49M/G94D	3.04	3 of 3	0 of 9
N51D/D91H/V97L	3.01	2 of 3	2 of 9
L27W/R28K/F98D	4.60	3 of 3	5 of 9
S26A/S55V/S89A	1.62	3 of 3	4 of 9
G24R/K50I/S55G	no signal	0 of 3	2 of 9
S26T/R90A/D91V	3.52	3 of 3	2 of 9